The record followed here is patent publication US11767504B2, “Albumin compositions and methods of producing and using same” (Albcura Corporation, priority 2020, dated 2023).

The experiment deals with Insulin. Description: Assay of insulin aggregation stabilization by various albumin (absorbance at 360 nm). Format: biochemical. To be noted: 1−(A360 with albumin)/(A360 of (−) group), at time point where control A360 near 0.35; albumin samples 2 mg/mL mixed 1:1 with 0.7 mg/mL insulin working solution, 37° C. As to the method: Various albumin samples were diluted to 2 mg/mL in purified water. An assay working solution was prepared containing 60 mM of HEPES (pH=7.4), 300 mM of NaCl, 30 mM of 2-mercaptoethanol, and 0.7 mg/mL of Insulin. In a 96-well plate, 100 μL of the assay working solution was mixed with 100 μL of each albumin sample. The plate was incubated at 37° C. inside a plate reader, and the absorbance at 360 nm was measured every 30 seconds for 60 minutes.
The absorbance data at 360 nm (A360) of each group was picked at the time point where the A360 of the control group (without albumin, labeled as (−)) was near 0.35. The data is depicted in FIG. 4 and the efficiency of the albumin's stabilizing effect was calculated by the equation below, and is summarized in Table 6 below. Stabilizing Efficiency %=1−(A360 of experimental group with albumin)/(A360 of (−) group)

“pHSA: Plasma-derived human serum albumin from Taiwan Blood Services Foundation (TBSF)”: the “Stabilizing Efficiency” value is 23%.
Then “rHSA (Optibumin ™): Recombinant human serum albumin (O. sativa) from InVitria, Optibumin”, with 39%; and “rHSA (S. cerevisiae): Recombinant human serum albumin (S. cerevisiae) from Sigma Aldrich (A6608)”, with 71%.
